Test: Paraffin wax solubility test
Format: physicochemical
Conditions: 2.0 g paraffin wax in 98 g solvent, 25 °C, stirring at 350 rpm
From the text: A method to evaluate the capability of a solvent to dissolve paraffin wax was developed and it helps to understand how will be performed certain solvent when applied to an epicuticular surface of a plant or an insect.

Dissolution Time: 627 min
Structure (SMILES): CCCCCCCCCCCCCC(=O)OC(C)C [isopropyl myristate]
